Results published in patent US11185100B2 (priority 2014, dated 2021).
Where a name gives a salt, the structure may show the parent alone.

Chains of the proteins cited; added tags and fusions are not shown. Lines headed by an entry give the natural chain unless they say otherwise; changes in a name come on top.
UniProt E3UMS2: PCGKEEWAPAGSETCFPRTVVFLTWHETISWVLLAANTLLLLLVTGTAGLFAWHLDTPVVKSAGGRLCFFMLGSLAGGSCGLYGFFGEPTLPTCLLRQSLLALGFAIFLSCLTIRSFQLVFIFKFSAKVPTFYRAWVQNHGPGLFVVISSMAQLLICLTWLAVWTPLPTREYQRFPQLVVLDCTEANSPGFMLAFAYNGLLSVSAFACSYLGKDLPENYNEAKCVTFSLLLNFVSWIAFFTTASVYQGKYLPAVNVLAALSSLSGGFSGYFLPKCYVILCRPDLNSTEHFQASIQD

Target: cat T1R1/T1R3 receptor (Felis catus, UniProt E3UMS2)
Details: +Alanine (20 mM)

How did the Activity turn out when `Nc1ncnc2c1ncn2C1OC(COP(=O)(O)OS(=O)(=O)O)C(O)C1O` (stereo not shown) [Adenosine 5′-phosphosulfate sodium salt, Adenosine 5′-phosphosulfate] was run?
The Activity was “active”.
